The record followed here is ChEMBL document CHEMBL4376840, “Application of Fluorine- and Nitrogen-Walk Approaches: Defining the Structural and Functional Diversity of 2-Phenylindole Class of Cannabinoid 1 Receptor Positive Allosteric Modulators” (J Med Chem, 2020).

Sequences of proteins named here, by UniProt entry; tags and fusion partners are left off.
UniProt P21554, whole entry: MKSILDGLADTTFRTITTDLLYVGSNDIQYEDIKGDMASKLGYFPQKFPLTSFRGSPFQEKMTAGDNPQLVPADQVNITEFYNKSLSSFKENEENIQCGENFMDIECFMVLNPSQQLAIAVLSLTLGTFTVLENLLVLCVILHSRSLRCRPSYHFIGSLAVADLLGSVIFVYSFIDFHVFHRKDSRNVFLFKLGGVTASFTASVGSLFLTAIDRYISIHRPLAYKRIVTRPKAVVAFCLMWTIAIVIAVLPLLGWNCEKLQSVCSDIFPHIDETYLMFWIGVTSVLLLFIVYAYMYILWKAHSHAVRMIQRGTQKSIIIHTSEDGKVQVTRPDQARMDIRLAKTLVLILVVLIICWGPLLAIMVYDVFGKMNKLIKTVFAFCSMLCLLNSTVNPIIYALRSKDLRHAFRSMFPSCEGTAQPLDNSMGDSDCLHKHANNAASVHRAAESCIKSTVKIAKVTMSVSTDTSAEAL
UniProt P20272, whole entry: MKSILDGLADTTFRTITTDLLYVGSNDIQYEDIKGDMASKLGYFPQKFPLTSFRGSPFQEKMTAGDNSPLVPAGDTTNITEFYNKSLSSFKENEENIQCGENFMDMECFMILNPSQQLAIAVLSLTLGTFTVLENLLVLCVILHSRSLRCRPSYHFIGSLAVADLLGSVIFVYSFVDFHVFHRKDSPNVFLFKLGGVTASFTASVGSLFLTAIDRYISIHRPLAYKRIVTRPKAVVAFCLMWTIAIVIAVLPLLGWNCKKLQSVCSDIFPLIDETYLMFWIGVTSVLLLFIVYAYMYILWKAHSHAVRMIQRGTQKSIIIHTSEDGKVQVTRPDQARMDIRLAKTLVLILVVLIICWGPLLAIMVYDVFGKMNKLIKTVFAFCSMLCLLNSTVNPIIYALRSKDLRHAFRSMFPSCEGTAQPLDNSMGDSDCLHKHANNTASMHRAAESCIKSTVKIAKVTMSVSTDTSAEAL

Assay [1] addresses T1, Cannabinoid receptor 1 (Homo sapiens, UniProt P21554). Put plainly: Positive allosteric modulatory activity at human CB1R expressed in CHO-K1 cells assessed as increase in CP55940-induced inhibition of forskolin-stimulated cAMP production after 30 mins in presence of CP55940 at EC20 concentration by hit-hunter cAMP assay relative to control. The format is functional, cell-based. The gist of the method: (§1)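 Read-out was chemiluminescent cAMP detection, fit with a variable-slope 4-parameter regression. n = 1–3 independent experiments in duplicate.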
(In general: cAMP levels reflect the balance of adenylyl cyclase and phosphodiesterase activity.)

For assay [2], the target named is T1, Cannabinoid receptor 1. Put plainly: Positive allosteric modulatory activity at human CB1R expressed in CHO-K1 cells assessed as increase in CP55940-induced beta-arrestin2 recruitment after 90 mins in presence of CP55940 at EC20 concentration by pathhunter beta-arrestin assay relative to control. The format is cell-based. Put shortly: (§2)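 Read-out was chemiluminescent β-arrestin2 recruitment, fit with a 4-parameter regression. n = 1–3 independent experiments in duplicate.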
A general note: Arrestin recruitment assays detect the binding of arrestin to an activated receptor.

For assay [3], the target named is T1, Cannabinoid receptor 1. Kind of assay: Positive allosteric modulatory activity at human CB1R expressed in CHO-K1 cells assessed as increase in CP55940-induced inhibition of forskolin-stimulated cAMP production after 30 mins in presence of CP55940 at EC20 concentration by hit-hunter cAMP assay. Type of assay: functional, cell-based. The gist of the method:
as §1

The target in assay [4] is T1, Cannabinoid receptor 1. Put plainly: Positive allosteric modulatory activity at human CB1R expressed in CHO-K1 cells assessed as increase in CP55940-induced beta-arrestin2 recruitment after 90 mins in presence of CP55940 at EC20 concentration by pathhunter beta-arrestin assay. Type of assay: cell-based. The gist of the method: as §2
For assay [5], the target named is Cannabinoid receptor 1 (Rattus norvegicus, UniProt P20272). Kind of assay: Allosteric agonist activity at N-terminal GFP-tagged rat CB1R expressed in HEK293 cells assessed as inhibition of forskolin-induced cAMP production after 30 min by TR-FRET assay. Type of assay: functional, cell-based. Put shortly:
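HEK293 cells stably expressing N-terminal GFP-tagged rat CB1R were trypsin-EDTA dissociated and resuspended in HBSS with 0.1% BSA and 0.5mM IBMX at 500 cells/well. Cells got 5μM forskolin plus compound (1 pM – 10 μM) alone for 30 min. 4-parameter fit; Emin is the lower plateau. n ≥ 3, triplicate.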

In assay [6] the target is T1, Cannabinoid receptor 1. Kind of assay: Displacement of [3H]SR141716A from human CB1R receptor expressed in CHO cell membranes after 2 hrs by liquid scintillation spectrometry analysis. (In general: Loss of bound radioactivity is the signal in a displacement assay; it reports binding, not function.)
Assay [7] has as its target T1, Cannabinoid receptor 1. Put plainly: Displacement of [3H]CP55940 from human CB1R receptor expressed in CHO cell membranes after 60 mins by liquid scintillation spectrometry analysis.
For assay [8], the target named is T1, Cannabinoid receptor 1. Put plainly: Positive allosteric modulation activity at human CB1 receptor expressed in CHO cell membranes assessed as increase in [3H]CP55940 binding at 1 uM measured after 90 mins in presence of [35S]GTPgammaS by liquid scintillation analysis. The format is functional.
Assay [9] deals with T1, Cannabinoid receptor 1. Kind of assay: Agonist activity at human CB1 receptor expressed in CHO cell membranes assessed as increase in G-protein coupling by measuring [35S]GTPgammaS binding after 90 mins in presence of [35S]GTPgammaS by liquid scintillation analysis. Type of assay: functional. The gist of the method:
(§3)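 [35S]GTPγS binding to G protein in membranes from CHO cells stably expressing human CB1R, with test compound given alone. Data fit to a variable-slope 4-parameter nonlinear regression. n = 4–6 independent experiments in duplicate.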

Assay [10] addresses T1, Cannabinoid receptor 1. Put plainly: Agonist activity at human CB1 receptor expressed in CHO cell membranes assessed as increase in G-protein coupling by measuring [35S]GTPgammaS binding after 90 mins in presence of [35S]GTPgammaS by liquid scintillation analysis relative to control. Type of assay: functional. Put shortly:
as §3

The target in assay [11] is T1, Cannabinoid receptor 1. Kind of assay: Allosteric agonist activity at human CB1R expressed in CHO-K1 cells assessed as inhibition of forskolin-induced cAMP accumulation after 90 mins by hit-hunter cAMP assay. The format is functional, cell-based. Put shortly:
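HitHunter CHO-K1 hCB1R cells (20,000/well) were held overnight in Opti-MEM with 1% FBS. They were then co-treated at 37°C with 10 μM forskolin plus compound alone (0.10 nM – 10 μM) for 90 min. Chemiluminescent cAMP detection followed (two 60-min room-temperature steps). Data as % forskolin, variable-slope 4-parameter fit; Emin is the lower plateau. n ≥ 6, triplicate.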

In assay [12] the target is T1, Cannabinoid receptor 1. Put plainly: Positive allosteric modulatory activity at human CB1R expressed in CHO-K1 cells assessed as increase in CP55940-induced inhibition of forskolin-induced cAMP accumulation after 90 mins in presence of 100 nM CP55940 by hit-hunter cAMP assay. Type of assay: functional, cell-based. The gist of the method: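 Uses the HitHunter CHO-K1 hCB1R cAMP set-up above. Data normalized to % forskolin, 4-parameter fit. n ≥ 6, triplicate.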

The target in assay [13] is T1, Cannabinoid receptor 1. Put plainly: Positive allosteric modulatory activity at human CB1R expressed in CHO-K1 cells assessed as increase in CP55940-induced inhibition of forskolin-induced cAMP accumulation by measuring cAMP accumulation at minimal level at higher concentration after 90 mins in presence of 100 nM CP55940 by hit-hunter cAMP assay relative to forskolin. The format is functional, cell-based. Put shortly:
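Uses the HitHunter CHO-K1 hCB1R cAMP set-up above. […] Data normalized to % forskolin, 4-parameter fit. n ≥ 6, triplicate.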

In assay [14] the target is T1, Cannabinoid receptor 1. Put plainly: Allosteric agonist activity at human CB1R expressed in CHO-K1 cells assessed as increase in beta arrestin2 recruitment after 90 mins by pathhunter beta-arrestin assay. Type of assay: cell-based. The gist of the method:
(§4)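 PathHunter CHO-K1 hCB1R cells (20,000/well) were held overnight in Opti-MEM with 1% FBS. Compound alone (0.10 nM – 10 μM) was given at 37°C for 90 min, then detection solution for 60 min at room temperature and chemiluminescence was read.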

The target of assay [15] is T1, Cannabinoid receptor 1. Kind of assay: Allosteric agonist activity at human CB1R expressed in CHO-K1 cells assessed as increase in beta arrestin2 recruitment after 90 mins by pathhunter beta-arrestin assay relative to CP55940. Type of assay: cell-based. Put shortly: as §4
Assay [16] concerns the target T1, Cannabinoid receptor 1. Put plainly: Positive allosteric modulatory activity at human CB1R expressed in CHO-K1 cells assessed as increase in CP55940-induced beta arrestin2 recruitment after 90 mins in presence of 100 nM CP55940 by pathhunter beta-arrestin assay. Type of assay: cell-based.
Assay [17] deals with T1, Cannabinoid receptor 1. Put plainly: Positive allosteric modulatory activity at human CB1R expressed in CHO-K1 cells assessed as maximal increase in CP55940-induced beta arrestin2 recruitment after 90 mins in presence of 100 nM CP55940 by pathhunter beta-arrestin assay relative to CP55940. Type of assay: cell-based.
The target in assay [18] is Cannabinoid receptor 1 (Rattus norvegicus) (UniProt P20272). Kind of assay: Positive allosteric modulatory activity at N-terminal GFP-tagged rat CB1R receptor expressed in HEK293 cells assessed as downward shift in CP55940 dependent concentration response curve for inhibition of forskolin-induced cAMP accumulation after 30 mins by TR-FRET assay. The format is functional, cell-based.

For assay [19] the target is unchanged. Kind of assay: Positive allosteric modulatory activity at N-terminal GFP-tagged rat CB1R receptor expressed in HEK293 cells assessed as leftward shift in CP55940 dependent concentration response curve for inhibition of forskolin-induced cAMP accumulation after 30 mins by TR-FRET assay. The format is functional, cell-based.

Active and inactive are the calls of the source. No cut-off for these calls is given here.

As to `O=[N+]([O-])CC(c1ccccc1)c1c(-c2cccc(F)c2)[nH]c2ccccc12` (stereo not given), the Emax (commonly the greatest response seen or fitted, relative to the assay's reference) on Cannabinoid receptor 1 [1] amounted to 140%; at Cannabinoid receptor 1 [2], 55%.
Turning to `O=[N+]([O-])CC(c1ccccc1F)c1c(-c2ccccc2)[nH]c2cc(F)ccc12` (stereo not given), the Emax on Cannabinoid receptor 1 [1] was 110%; at Cannabinoid receptor 1 [2], 54%.
For the compound `O=[N+]([O-])CC(c1ncccc1F)c1c(-c2ccccc2)[nH]c2ccccc12` (stereo not given), the EC50 (commonly the concentration at which the effect is half-maximal) was 1.9 µM at Cannabinoid receptor 1 [3]; more than 10 µM on Cannabinoid receptor 1 [4]; 0.69 µM on Cannabinoid receptor 1 [5]; 0.17 µM at Cannabinoid receptor 1 [9]; more than 10 µM on Cannabinoid receptor 1 [11]; 0.014 µM at Cannabinoid receptor 1 [12]. Also, the results for the EC50 at Cannabinoid receptor 1 [14] and at Cannabinoid receptor 1 [16] were 3.3 µM and more than 10 µM, respectively. For the same compound, the Emax at Cannabinoid receptor 1 [1] was 95%; on Cannabinoid receptor 1 [2] it was -1.4%; on Cannabinoid receptor 1 [10], 22%; at Cannabinoid receptor 1 [15], 23%; on Cannabinoid receptor 1 [17] it was 24%. Further, the inhibitory constant (Ki) (usually the equilibrium dissociation constant of an inhibitor or competing ligand from its target) on Cannabinoid receptor 1 [6] is 2.3 µM; on Cannabinoid receptor 1 [7], 0.11 µM. On Cannabinoid receptor 1 [8], the outcome was Active. Also, at Cannabinoid receptor 1 [13], the Emin was determined as 11%. The Activity result in assay [18] and in assay [19] was “Dose-dependent effect” each time.
As for `O=[N+]([O-])CC(c1ccccc1F)c1c(-c2ccccc2)[nH]c2c(F)cccc12` (stereo not given), the Emax on Cannabinoid receptor 1 [1] came out at 100%; at Cannabinoid receptor 1 [2], 76%.
